Experimental data taken from US20050136053A1 (DYAX, published 2005).

Amino acid sequences for entries named in this document (tags omitted). A change or cut given only in a name is not applied to a line headed by its entry.
UniProt P14753: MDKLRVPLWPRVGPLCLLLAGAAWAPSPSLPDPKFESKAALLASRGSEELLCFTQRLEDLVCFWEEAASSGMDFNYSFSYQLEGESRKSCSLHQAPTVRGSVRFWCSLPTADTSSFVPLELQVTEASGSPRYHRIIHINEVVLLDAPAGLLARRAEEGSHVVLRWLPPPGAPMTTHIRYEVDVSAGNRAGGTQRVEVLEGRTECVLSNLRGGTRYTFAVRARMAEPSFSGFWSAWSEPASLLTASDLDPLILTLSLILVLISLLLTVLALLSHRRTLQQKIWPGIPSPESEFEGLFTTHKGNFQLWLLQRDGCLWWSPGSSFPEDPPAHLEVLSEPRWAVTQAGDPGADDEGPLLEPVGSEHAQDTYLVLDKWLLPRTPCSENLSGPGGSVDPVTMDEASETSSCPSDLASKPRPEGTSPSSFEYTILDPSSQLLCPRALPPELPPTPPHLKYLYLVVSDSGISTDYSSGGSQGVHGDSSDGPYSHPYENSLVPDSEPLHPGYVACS

Target: Tie1-EpoR chimeric receptor on Ba/F3 cells (human; mouse) (UniProt P14753)
Test: cell-based or functional assay

Average MTT activity in BaF3 cell assay (treatment E3 + PA1) | Average MTT activity in BaF3 cell assay (treatment E3 + PA10) | Substance
0.6 | – | anti-Tie1 antibody p-A1, IgG
– | 0.65 | anti-Tie1 antibody p-A10, IgG
